Assay results published in PubChem BioAssay AID504357 (The Scripps Research Institute Molecular Screening Center, 2011).
This is a selection; strong and weak results do not stand in their true shares. Calls of active or inactive are those of the source. Cut-off read from the data, not from the text of the source: active = inhibition above about 22% (passing the limit was not always enough); inactive = the rest.

The chains behind the UniProt entries cited, without tags or fusion partners.
UniProt P35372, whole entry, looked up: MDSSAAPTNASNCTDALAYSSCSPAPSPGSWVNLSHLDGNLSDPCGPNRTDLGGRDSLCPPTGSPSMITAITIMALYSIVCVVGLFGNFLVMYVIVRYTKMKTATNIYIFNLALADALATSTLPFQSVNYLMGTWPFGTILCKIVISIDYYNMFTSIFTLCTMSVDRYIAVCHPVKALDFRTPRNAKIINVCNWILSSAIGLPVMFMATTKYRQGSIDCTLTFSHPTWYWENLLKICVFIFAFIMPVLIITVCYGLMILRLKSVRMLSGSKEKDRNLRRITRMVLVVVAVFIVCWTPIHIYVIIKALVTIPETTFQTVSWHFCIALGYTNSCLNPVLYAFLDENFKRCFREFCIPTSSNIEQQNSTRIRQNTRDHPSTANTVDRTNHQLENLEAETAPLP
UniProt P41143, whole entry, looked up: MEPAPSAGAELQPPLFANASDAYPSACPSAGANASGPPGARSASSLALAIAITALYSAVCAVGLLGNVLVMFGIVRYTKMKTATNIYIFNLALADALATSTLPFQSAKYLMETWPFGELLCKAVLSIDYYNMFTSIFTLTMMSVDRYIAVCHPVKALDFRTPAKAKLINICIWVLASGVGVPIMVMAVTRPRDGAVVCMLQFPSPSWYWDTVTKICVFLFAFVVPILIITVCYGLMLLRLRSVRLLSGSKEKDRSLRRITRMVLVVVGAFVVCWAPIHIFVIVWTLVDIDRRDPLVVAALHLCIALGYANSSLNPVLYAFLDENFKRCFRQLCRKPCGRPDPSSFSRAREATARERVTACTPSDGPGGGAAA

target: Mu-type opioid receptor (Homo sapiens) + Delta-type opioid receptor (Homo sapiens) (UniProt P35372+P41143); experiment: OPRM1-OPRD1 heterodimer inverse agonism – cell-based, luminescence, primary screen (AID 504357); details: cell-based MOR-DOR heterodimer luminescence, at 9.3 µM, hits give high values;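 note: 0% = cells with DMSO and 100% = wells without cells with DMSO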

Compound | inhibition
O=C(NCC1(N2CCOCC2)CCCCC1)c1cc(F)c(F)cc1Cl | inactive: 1.78%
COc1cc(OC)c(C(=O)NCC2(N(C)C)CCCCC2)cc1OC | inactive: 10.4%
CN(C)c1cccc(C(=O)NCC2(N3CCCCC3)CCCCC2)c1 | inactive: -10.4%
COc1ccc(CN(CCCl)CCCl)cc1Cl | inactive: 8.34%
CC(C)c1ccc(NC2CCN(C(=O)OC(C)(C)C)CC2)cc1 | inactive: -57.5%
CCCOc1ccc(C(=O)NCC2(N(C)C)CCCCC2)cc1OC | inactive: -15.6%
O=C(NCC1(N2CCCCC2)CCCCC1)c1cncc(Br)c1 | inactive: 9.94%
CN1CCC(Nc2cccc(F)c2)CC1 | inactive: 0.39%
O=C(NCC1(N2CCCCC2)CCCCC1)c1cccc([N+](=O)[O-])c1 | inactive: 11.5%
CSc1ccc(C(=O)NCC2(N3CCOCC3)CCCCC2)cc1 | inactive: 0.95%
N#CC1(Nc2ccccc2)CCN(CCc2ccccc2)CC1 | inactive: 10.2%
CCN1CCC(Nc2ccc(Cl)cc2)CC1 | inactive: 12.7%
O=C(NCC1(N2CCCCC2)CCCCC1)c1ccc(OC(F)F)cc1 | inactive: 10.3%
CC(C)c1ccc(C(=O)NCC2(N3CCOCC3)CCCCC2)cc1 | inactive: 3.49%
COc1ccc(NC2CCN(C(=O)OC(C)(C)C)CC2)cc1 | inactive: 9.93%
CN1CCN(CCOC(=O)C(O)(c2ccccc2)c2ccccc2)CC1 | inactive: 13.4%
O=C(NCC1(N2CCOCC2)CCCCC1)c1cc(=O)[nH]c2ccccc12 | inactive: -0.6%
COc1cc(C(=O)NCC2(N3CCCCC3)CCCCC2)ccc1OC(F)F | inactive: -8.48%
O=C(NCC1(N2CCCCC2)CCCCC1)c1cccc(C(F)(F)F)c1 | inactive: 11.9%
CCOC(=O)N1CCC(Nc2ccc(F)cc2)CC1 | inactive: 16.8%
COc1ccc(NC2CCN(CCc3ccccc3)CC2)c(OC)c1 | inactive: -10%
O=C(NCC1(N2CCCCC2)CCCCC1)c1ccc(F)cc1 | inactive: 9.93%
CCCCOc1ccc(C(=O)NCC2(N3CCOCC3)CCCCC2)cc1 | inactive: -3.64%
O=P1(N(CCCl)CCCl)SCCCS1 | inactive: 6.36%
CCOc1ccc(C)cc1CN(CCCl)CCCl | inactive: 8%

Compound | inhibition
O=C1CCN(Cc2ccccc2)CC1 | inactive: -2.66%
COc1cc(C(=O)NCC2(N(C)C)CCCCC2)ccc1OC(F)F | inactive: -57%
CCOC(=O)N1CCC(Nc2cccc(C)c2)CC1 | inactive: 1.99%
Cc1cccc(NC2(C#N)CCN(Cc3ccccc3)CC2)c1 | inactive: 3.98%
CSc1ccccc1C(=O)NCC1(N2CCCCC2)CCCCC1 | inactive: 9.28%
O=C(NCC1(N2CCCCC2)CCCCC1)c1cccs1 | inactive: 8.15%
O=C(NCC1(N2CCCCC2)CCCCC1)c1ccc(=O)[nH]c1 | inactive: 4.94%
CC(C)(C)OC(=O)N1CCC(N(C(=O)c2ccccc2)c2ccc(F)cc2)CC1 | inactive: 12.3%
COc1ccc(C(=O)NCC2(N3CCCCC3)CCCCC2)c(OC)c1OC | inactive: 6.79%
COc1ccc(C(=O)NCC2(N3CCCCC3)CCCCC2)cc1 | inactive: 10.5%
CCOC(=O)N1CCC(Nc2ccc(OC)cc2)CC1 | inactive: -2.33%
COc1ccc(Cl)cc1C(=O)NCC1(N2CCOCC2)CCCCC1 | inactive: 7.76%
O=C(OC1CN2CCC1CC2)C1c2ccccc2Oc2ccccc21 (centres undefined) | inactive: -0.48%
O=C(NCC1(N2CCCCC2)CCCCC1)c1ccc(Cl)s1 | inactive: 4.38%
N#CC1(Nc2ccccc2)CCN(Cc2ccccc2)CC1 | inactive: 8.41%
O=C(NCC1(N2CCOCC2)CCCCC1)c1cc2ccccc2o1 | inactive: -2.95%
Cc1cc(C)cc(N(C(=O)c2ccccc2)C2CCN(C(=O)OC(C)(C)C)CC2)c1 | inactive: -14.9%
O=C(NCC1(N2CCCCC2)CCCCC1)c1ccc(Cl)nc1 | inactive: -1.81%
CCCOc1ccc(C(=O)NCC2(N(C)C)CCCCC2)cc1 | inactive: -24.9%
O=C(O)C1(Nc2ccccc2)CCN(Cc2ccccc2)CC1 | inactive: -13.7%
CC(C)(C)OC(=O)N1CCC(Nc2ccccc2)CC1 | inactive: 8.88%
CN1CCC(Nc2ccc(F)c(Cl)c2)CC1 | inactive: 8.37%
CCOc1ncccc1C(=O)NCC1(N2CCOCC2)CCCCC1 | inactive: 8.16%
CN1CCC(Nc2ccc(Cl)cc2)CC1 | inactive: 5.43%
CCC(CO)(C(=O)OC1CN2CCC1CC2)c1ccccc1 (centres undefined) | inactive: -2.5%

Compound | inhibition
COc1cccc(C(=O)N(c2cc(C)cc(C)c2)C2CCN(C(=O)OC(C)(C)C)CC2)c1 | inactive: -23.9%
COc1cc(OC)cc(C(=O)NCC2(N3CCOCC3)CCCCC2)c1 | inactive: -6.13%
Cc1ccc(NC2(C#N)CCN(Cc3ccccc3)CC2)cc1 | inactive: -1.81%
Fc1ccccc1NC1CCN(Cc2ccccc2)CC1 | inactive: 1.36%
Cc1ccc(C(=O)NCC2(N3CCCCC3)CCCCC2)o1 | inactive: 8.75%
COc1cc(OC)cc(C(=O)NCC2(N3CCCCC3)CCCCC2)c1 | inactive: 1.88%
CC(=O)N(c1ccccc1)C1CCNCC1 | inactive: 17.6%
Cn1c(=O)[nH]cc(N(CCCl)CCCl)c1=O | inactive: 11.1%
CN(C)c1ccc(C(=O)NCC2(N3CCCCC3)CCCCC2)cc1 | inactive: 3.23%
O=C(NCC1(N2CCCCC2)CCCCC1)c1ccco1 | inactive: 9.21%
CCN1CCC(Nc2cccc(F)c2)CC1 | inactive: -3.09%
Cc1ccccc1NC1(C#N)CCN(Cc2ccccc2)CC1 | inactive: 14.7%
CC(C)(C)OC(=O)N1CCC(N(C(=O)c2ccccc2)c2ccc(Cl)cc2)CC1 | inactive: -4.61%
N#Cc1ccc(C(=O)NCC2(N3CCCCC3)CCCCC2)cc1 | inactive: 4.66%
Cc1cc(N(CCCl)CCCl)ccc1C=O | inactive: 13.3%
CCCN1CCC(Nc2cc(OC)cc(OC)c2)CC1 | inactive: -11.7%
c1ccc(CN2CCC(Nc3ccccc3)CC2)cc1 | inactive: 4.71%
CN(C)C1(CNC(=O)c2cccc(C#N)c2)CCCCC1 | inactive: 10.7%
COc1ccc(C(=O)NCC2(N3CCOCC3)CCCCC2)cc1OC | inactive: 1.07%
O=C(NCC1(N2CCOCC2)CCCCC1)c1cc(Br)ccc1Cl | inactive: -24.2%
COc1cc(C(=O)NCC2(N3CCOCC3)CCCCC2)cc(OC)c1C | inactive: -5.21%
O=C(OC1CN2CCC1CC2)C1c2ccccc2C=Cc2ccccc21 (centres undefined) | inactive: -6.03%
N/C(=N\O)c1c(N)no[n+]1[O-] | inactive: 8.53%
CCOC(=O)N1CCC(Nc2ccc(C)cc2)CC1 | inactive: 14.1%
